These are literature values, as cited in article PMC11609626 (Cancer Discovery, 2024).

For the series, the system named is ALK^+ NSCLC. The following applies: ensartinib vs crizotinib; cited from earlier work.

The structures appear in SMILES notation.

For the compound `C[C@@H](Oc1cc(-c2cnn(C3CCNCC3)c2)cnc1N)c1c(Cl)ccc(F)c1Cl` [Crizotinib], the mPFS was 12.7 months.
